Amino acid sequences for entries named in this document (tags omitted).
UniProt P61169, whole entry: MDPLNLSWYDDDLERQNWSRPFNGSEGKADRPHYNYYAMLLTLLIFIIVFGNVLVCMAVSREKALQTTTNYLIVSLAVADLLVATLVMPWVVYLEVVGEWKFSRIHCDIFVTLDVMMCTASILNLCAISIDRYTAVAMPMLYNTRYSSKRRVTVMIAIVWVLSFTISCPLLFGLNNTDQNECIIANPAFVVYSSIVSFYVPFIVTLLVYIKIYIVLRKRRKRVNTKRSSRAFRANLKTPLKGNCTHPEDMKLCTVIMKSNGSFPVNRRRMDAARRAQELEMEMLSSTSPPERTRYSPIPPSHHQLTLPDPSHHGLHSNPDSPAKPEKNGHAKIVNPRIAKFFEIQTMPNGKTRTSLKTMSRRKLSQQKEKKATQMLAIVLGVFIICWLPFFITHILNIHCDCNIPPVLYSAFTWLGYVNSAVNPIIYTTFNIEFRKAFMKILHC
UniProt P08908, whole entry: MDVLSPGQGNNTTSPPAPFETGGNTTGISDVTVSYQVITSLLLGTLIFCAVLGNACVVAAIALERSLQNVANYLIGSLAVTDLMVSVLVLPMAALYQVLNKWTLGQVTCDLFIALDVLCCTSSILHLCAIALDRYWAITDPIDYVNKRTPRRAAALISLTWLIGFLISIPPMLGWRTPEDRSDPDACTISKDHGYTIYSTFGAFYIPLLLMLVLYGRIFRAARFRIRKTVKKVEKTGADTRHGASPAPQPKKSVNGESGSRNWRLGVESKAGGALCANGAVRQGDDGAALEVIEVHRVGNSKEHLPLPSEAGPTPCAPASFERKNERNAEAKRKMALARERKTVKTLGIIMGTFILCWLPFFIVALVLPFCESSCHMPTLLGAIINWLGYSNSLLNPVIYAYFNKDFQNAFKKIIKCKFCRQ

According to ChEMBL document CHEMBL1127015, “Centrally acting serotonergic and dopaminergic agents. 1. Synthesis and structure-activity relationships of 2,3,3a,4,5,9b-hexahydro-1H-benz[e]indole derivatives” (J Med Chem, 1993):

What was measured:
D(2) dopamine receptor [1] = target: T1, D(2) dopamine receptor (Rattus norvegicus, UniProt P61169); assay: Binding affinity against [3H]raclopride-labeled dopamine receptor D2 in rat striatum.; type: tissue-based
[2] = target: 5-hydroxytryptamine receptor 1A (Homo sapiens, UniProt P08908)
D(2) dopamine receptor [3] = target: T1, D(2) dopamine receptor; assay: Inhibitory concentration against [3H]raclopride-labeled dopamine receptor D2 in rat striatum; type: tissue-based
D(2) dopamine receptor [4] = target: T1, D(2) dopamine receptor; assay: Compound was evaluated for the binding affinity against [3H]U-86,170-labeled dopamine receptor D2 in rat striatum; type: tissue-based

Structure (SMILES) | Ki (D(2) dopamine receptor [1]) | other results
C=CCN1CCC2c3c(cccc3OC)CC[C@@H]21 (single isomer, unassigned; (+)) | 270 nM | 
C=CCN1CC[C@@H]2c3c(cccc3OC)CC[C@H]21 (racemic) | 13 nM | 
C=CCN1CCC2c3c(cccc3OC)CC[C@H]21 (single isomer, unassigned; (-)) | 5.3 nM | 
COc1cccc2c1C1CCN(CCc3ccccc3)[C@@H]1CC2 (stereo partly specified) |  | Ki [2]: > 442 nM
C=CCN1CC[C@H]2c3c(cccc3OC)CC[C@H]21 (racemic) |  | IC50 (D(2) dopamine receptor [3]): > 1000 nM; Ki (D(2) dopamine receptor [4]): 7 nM
